Measurements reported in EP1734031A1, “NOVEL 2-(ALPHA-N-PENTANONYL)BENZOETES, THEIR PREPARATION AND USE” (priority 2004, dated 2005).

Test: in vivo
Conditions: mouse, po, LD50 value, ICR mice, oral gavage, observed 7 days, method of Bliss

Compound: CCCCC(O)c1ccccc1C(=O)O (stereo not drawn) [Calcium 2-(α-hydroxypentyl)benzoate]
- LD50 at 168 h: 1520 mg/kg
